This is a selection; strong and weak results do not stand in their true shares. Active and inactive are the calls of the source.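 The calls were made as follows: active = at least 40% inhibition at 20 µM here, with at most 30% in a related deaminase screen; inactive = the rest.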

By UniProt entry, the sequences of proteins in these tests, tags left out.
UniProt P31941, whole entry: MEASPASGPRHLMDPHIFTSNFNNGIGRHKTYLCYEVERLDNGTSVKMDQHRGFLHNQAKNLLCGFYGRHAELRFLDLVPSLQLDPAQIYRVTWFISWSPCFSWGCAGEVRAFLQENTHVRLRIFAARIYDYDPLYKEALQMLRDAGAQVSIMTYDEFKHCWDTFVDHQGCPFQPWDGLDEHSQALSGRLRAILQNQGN

This experiment addresses DNA dC->dU-editing enzyme APOBEC-3A (Homo sapiens) (UniProt P31941). The experiment in a line: APOBEC3A ssDNA deaminase inhibitors, primary screen, selectivity assay for APOBEC3G inhibitor project, biochemical, FAM/TAMRA oligo cleavage fluorescence (AID 493011).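 Also: plate controls were A3A with DMSO for no effect and wells lacking A3A enzyme for full effect.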 The settings on record: recombinant A3A, FAM/TAMRA ssDNA deamination fluorescence; at 20 µM; stronger effect = higher value.
For orientation: inhibition means the change of the read-out against control, counted positive when it falls. On to `O=C(NCC1(N2CCCCC2)CCCCC1)c1ccc(OC(F)F)cc1`, for which the inhibition was inactive: 3.46%.

`N#CC1(Nc2ccccc2)CCN(CCc2ccccc2)CC1`: the inhibition was inactive: -1.98%.

As to `CCN1CCC(Nc2ccc(Cl)cc2)CC1`, the inhibition is inactive: -9.67%.

Take `CSc1ccc(C(=O)NCC2(N3CCOCC3)CCCCC2)cc1`: the inhibition was inactive: -2.5%.

Turning to `O=C(NCC1(N2CCCCC2)CCCCC1)c1cccc([N+](=O)[O-])c1`, the inhibition was inactive: 4.82%.

Take `O=C(NCC1(N2CCCCC2)CCCCC1)c1cccc(C(F)(F)F)c1`: the inhibition was inactive: -2.83%.

`COc1cc(C(=O)NCC2(N3CCCCC3)CCCCC2)ccc1OC(F)F`: the inhibition is inactive: 26.2%.

Regarding `O=C(NCC1(N2CCOCC2)CCCCC1)c1cc(=O)[nH]c2ccccc12`, the inhibition was inactive: -8.74%.

Regarding `CN1CCN(CCOC(=O)C(O)(c2ccccc2)c2ccccc2)CC1`, the inhibition was inactive: -1.18%.

For the molecule `COc1ccc(NC2CCN(C(=O)OC(C)(C)C)CC2)cc1`, the inhibition is inactive: 1.69%.

With `CC(C)c1ccc(C(=O)NCC2(N3CCOCC3)CCCCC2)cc1`, the inhibition was inactive: 1.15%.

Regarding `CC(C)c1ccc(NC2CCN(C(=O)OC(C)(C)C)CC2)cc1`, the inhibition is inactive: 6.94%.

On to `CN(C)c1cccc(C(=O)NCC2(N3CCCCC3)CCCCC2)c1`, for which the inhibition was inactive: 0.836%.

For the molecule `COc1ccc(CN(CCCl)CCCl)cc1Cl`, the inhibition is inactive: -5.85%.

For the molecule `O=C(NCC1(N2CCOCC2)CCCCC1)c1cc(F)c(F)cc1Cl`, the inhibition is inactive: -1.35%.

Take `COc1cc(OC)c(C(=O)NCC2(N(C)C)CCCCC2)cc1OC`: the inhibition is inactive: -4.7%.

In the case of `CN1CCC(Nc2cccc(F)c2)CC1`, the inhibition was inactive: -2.68%.

As to `O=C(NCC1(N2CCCCC2)CCCCC1)c1cncc(Br)c1`, the inhibition is inactive: 5.01%.

`COc1ccc(C(=O)NCC2(N3CCCCC3)CCCCC2)c(OC)c1OC`: the inhibition is inactive: 3.27%.

`CC(C)(C)OC(=O)N1CCC(N(C(=O)c2ccccc2)c2ccc(F)cc2)CC1`: the inhibition was inactive: -2.03%.

For `COc1ccc(C(=O)NCC2(N3CCCCC3)CCCCC2)cc1`, the inhibition is inactive: -0.307%.

`O=C(NCC1(N2CCCCC2)CCCCC1)c1cccs1`: the inhibition is inactive: 15.6%.

Regarding `O=C(NCC1(N2CCCCC2)CCCCC1)c1ccc(=O)[nH]c1`, the inhibition is inactive: -0.236%.

For `CSc1ccccc1C(=O)NCC1(N2CCCCC2)CCCCC1`, the inhibition was inactive: 1.78%.

As for `Cc1cc(C)cc(N(C(=O)c2ccccc2)C2CCN(C(=O)OC(C)(C)C)CC2)c1`, the inhibition is inactive: 0.404%.

For the molecule `O=C(NCC1(N2CCCCC2)CCCCC1)c1ccc(Cl)nc1`, the inhibition was inactive: 22.9%.

Consider `O=C(NCC1(N2CCOCC2)CCCCC1)c1cc2ccccc2o1`, for which the inhibition is inactive: -1.41%.

On to `COc1ccc(Cl)cc1C(=O)NCC1(N2CCOCC2)CCCCC1`, for which the inhibition was inactive: -1.82%.

On to `N#CC1(Nc2ccccc2)CCN(Cc2ccccc2)CC1`, for which the inhibition is inactive: -2.27%.

As for `O=C(NCC1(N2CCCCC2)CCCCC1)c1ccc(Cl)s1`, the inhibition was inactive: -2.13%.

On to `O=C(OC1CN2CCC1CC2)C1c2ccccc2Oc2ccccc21` (configuration not stated), for which the inhibition is inactive: -3.13%.

Turning to `CCOC(=O)N1CCC(Nc2ccc(OC)cc2)CC1`, the inhibition was inactive: 0.275%.

For the molecule `CCOc1ccc(C)cc1CN(CCCl)CCCl`, the inhibition is inactive: -3.81%.

For the molecule `COc1ccc(NC2CCN(CCc3ccccc3)CC2)c(OC)c1`, the inhibition is inactive: -2.08%.

For the molecule `CCOC(=O)N1CCC(Nc2ccc(F)cc2)CC1`, the inhibition is inactive: 4.27%.

`CCCCOc1ccc(C(=O)NCC2(N3CCOCC3)CCCCC2)cc1`: the inhibition was inactive: 1.24%.

With `O=C(NCC1(N2CCCCC2)CCCCC1)c1ccc(F)cc1`, the inhibition is inactive: -0.269%.

Turning to `Cc1ccc(OCC(C)C)c(CN(CCCl)CCCl)c1`, the inhibition was inactive: -1.08%.

For `CCOC(=O)N1CCC(Nc2cccc(C)c2)CC1`, the inhibition was inactive: -7.07%.

`COc1cc(OC)cc(C(=O)NCC2(N3CCCCC3)CCCCC2)c1`: the inhibition is inactive: 5.24%.

Regarding `Fc1ccccc1NC1CCN(Cc2ccccc2)CC1`, the inhibition was inactive: -1.85%.

For the molecule `Cc1ccc(C(=O)NCC2(N3CCCCC3)CCCCC2)o1`, the inhibition is inactive: -2.38%.

Consider `CCN1CCC(Nc2cccc(F)c2)CC1`, for which the inhibition is inactive: -3.29%.

For `CN(C)c1ccc(C(=O)NCC2(N3CCCCC3)CCCCC2)cc1`, the inhibition was inactive: -0.451%.

In the case of `O=C(NCC1(N2CCCCC2)CCCCC1)c1ccco1`, the inhibition is inactive: 2.32%.

On to `CN1CCC(Nc2ccc(F)c(Cl)c2)CC1`, for which the inhibition is inactive: -3.33%.

Regarding `CCOc1ncccc1C(=O)NCC1(N2CCOCC2)CCCCC1`, the inhibition is inactive: 2.6%.

Take `O=C(O)C1(Nc2ccccc2)CCN(Cc2ccccc2)CC1`: the inhibition is inactive: -4.15%.

Regarding `CC(C)(C)OC(=O)N1CCC(Nc2ccccc2)CC1`, the inhibition was inactive: 0.693%.

With `CCCOc1ccc(C(=O)NCC2(N(C)C)CCCCC2)cc1`, the inhibition is inactive: 0.211%.

As for `COc1cc(OC)cc(C(=O)NCC2(N3CCOCC3)CCCCC2)c1`, the inhibition is inactive: -4.18%.

As to `COc1cccc(C(=O)N(c2cc(C)cc(C)c2)C2CCN(C(=O)OC(C)(C)C)CC2)c1`, the inhibition was inactive: -2.06%.

Turning to `CCC(CO)(C(=O)OC1CN2CCC1CC2)c1ccccc1` (configuration not stated), the inhibition was inactive: 2.29%.

Turning to `CN1CCC(Nc2ccc(Cl)cc2)CC1`, the inhibition is inactive: -9.7%.

Take `CCCOc1ccc(C)cc1CN(CCCl)CCCl`: the inhibition was inactive: -3.31%.

For the molecule `COc1cc(C(=O)NCC2(N3CCOCC3)CCCCC2)cc(OC)c1C`, the inhibition is inactive: 5.26%.

As for `O=C(NCC1(N2CCOCC2)CCCCC1)c1cc(Br)ccc1Cl`, the inhibition was inactive: -2.49%.

Regarding `COc1ccc(C(=O)NCC2(N3CCOCC3)CCCCC2)cc1OC`, the inhibition is inactive: -0.988%.

On to `CCOC(=O)N1CCC(Nc2ccc(C)cc2)CC1`, for which the inhibition is inactive: -7.67%.

Consider `N/C(=N\O)c1c(N)no[n+]1[O-]`, for which the inhibition is inactive: -2.49%.

`CCc1cc(C(=O)NCC2(N3CCCCC3)CCCCC2)sc1C`: the inhibition was inactive: -4.32%.

In the case of `O=C(OC1CN2CCC1CC2)C1c2ccccc2C=Cc2ccccc21` (configuration not stated), the inhibition was inactive: -0.776%.

On to `N#Cc1ccc(C(=O)NCC2(N3CCCCC3)CCCCC2)cc1`, for which the inhibition is inactive: 2.09%.

For the molecule `CC(C)(C)OC(=O)N1CCC(N(C(=O)c2ccccc2)c2ccc(Cl)cc2)CC1`, the inhibition was inactive: -3.76%.

As to `CN(C)C1(CNC(=O)c2cccc(C#N)c2)CCCCC1`, the inhibition is inactive: 1.35%.

As for `CCCN1CCC(Nc2cc(OC)cc(OC)c2)CC1`, the inhibition is inactive: -5.54%.

Take `c1ccc(CN2CCC(Nc3ccccc3)CC2)cc1`: the inhibition is inactive: -1.66%.
